The values below come from patent publication US12486268B2 (TRANSNEURAL THERAPEUTICS, INC., priority 2022, dated 2025).

Sequences of proteins named here, by UniProt entry; tags and fusion partners are left off.
UniProt P28223, whole entry: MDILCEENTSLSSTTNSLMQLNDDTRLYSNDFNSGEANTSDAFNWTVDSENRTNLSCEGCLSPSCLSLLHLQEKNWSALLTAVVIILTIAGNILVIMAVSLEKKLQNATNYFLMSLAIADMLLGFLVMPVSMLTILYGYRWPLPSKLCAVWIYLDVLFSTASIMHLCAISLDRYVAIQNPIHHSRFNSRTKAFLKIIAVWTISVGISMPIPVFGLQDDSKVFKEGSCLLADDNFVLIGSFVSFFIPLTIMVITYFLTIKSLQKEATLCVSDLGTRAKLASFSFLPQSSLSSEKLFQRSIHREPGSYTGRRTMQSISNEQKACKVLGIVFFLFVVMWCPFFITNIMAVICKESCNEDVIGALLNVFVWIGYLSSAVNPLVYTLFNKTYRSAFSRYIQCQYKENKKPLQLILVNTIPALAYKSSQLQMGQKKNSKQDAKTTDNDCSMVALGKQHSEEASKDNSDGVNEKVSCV

In the test the target is human serotonin 2A receptors (5-HT2AR) (Homo sapiens, UniProt P28223). Nature of the test: IP1 accumulation assay (HTRF). The conditions noted are these: for pEC50: read-out: h5-HT2A EC50, IP1 production (proxy for Gq activation), HEK 293 cells expressing human 5-HT2AR; for h5-HT2A Emax: IP1 production, HEK 293 cells expressing human 5-HT2AR, relative to 5-HT. The procedure:
The functional activity of disclosed compounds is measured using an IP1 (inositol monophosphate) accumulation assay. The effects of disclosed compounds on IP1 production (a proxy for Gq activation) was measured in HEK 293 cells expressing human serotonin 2A receptors (5-HT2AR) using a Homogeneous Time Resolved Fluorescence (HTRF) assay. Standard protocols are followed. Briefly, a cell suspension and test compound/s is incubated in a standard buffer. Following incubation, the cells are lysed, and the fluorescence acceptor and donor are added. After incubation the fluorescence transfer is measured, and data is analyzed using GraphPad Prism to generate concentration response curves.
(In general: In TR-FRET formats the signal depends on donor and acceptor labels being close together.)

pEC50: −log10 of the molar value.

As a reminder, the pEC50 is the EC50 on a negative log10 scale, so that one unit is a factor of ten. For `C1=C(c2c[nH]c3ncccc23)C2CCC(C1)N2` (single isomer, unassigned), the pEC50 is below 5.00.

In the case of `CC1C=C(c2nsc3ccccc23)CNC1` (single isomer, unassigned) [161 Isomer 1], the “h5-HT2A Emax” value was “+++ (+++=>90)” and the pEC50 was 6.00 to 7.00.

Take `CC1C=C(c2nsc3ccccc23)CNC1` (single isomer, unassigned) [161 Isomer 2]: the “h5-HT2A Emax” value was “++ (++=75 to 90)” and the pEC50 is above 7.00.
